This series deals with cirrhotic patients with tense ascites. Particulars: for Aldosteronaemia: plasma aldosterone as marker of blood volume; for Reninaemia: plasma renin as marker of blood volume.

Where two headings read alike, the source gives them in different places.

With “Albumin: human albumin derived from donated human blood, given as 20% infusion”, for the setting “4-6 days later”, the Aldosteronaemia stood at 1420 ± 292 pg/mL and the Reninaemia turned out to be 223 ± 74 pg/mL. Where the note is “Before”, the Aldosteronaemia was determined as 1149 ± 324 pg/mL and the Reninaemia came out at 194 ± 47 pg/mL. Under “human, in vivo”, this substance yielded a Creatininaemia of 71 ± 6 and a Natraemia of 132 ± 1 mmol/L.

Source of the values: patent publication US20040102362A1, “Protocol for paracentesis” (priority 2000, published 2004).
